Data: patent publication US20220184072A1 (priority 2019, published 2022)

Molecular target: mu-opiate receptors (Mus musculus, UniProt P42866)
Assay: Mouse tail flick: analgesia after 14-day chronic administration
Conditions: acute Vehicle

O=C1CN2c3c(cccc3[C@@H]3CN(CCCc4noc5cc(F)ccc45)CC[C@@H]32)N1
Latency ((B) chronic Ex. 3 0.3 mg/kg): 0.893 s | Latency ((C) chronic Ex. 3 3.0 mg/kg): 1.04 s
